The values that follow come from PubChem BioAssay AID504339 (National Center for Advancing Translational Sciences (NCATS), 2011).

By UniProt entry, the sequences of proteins in these tests, tags left out. Where a name states a change or a piece, a line headed by the entry shows the natural chain unless it says otherwise.
UniProt O75164: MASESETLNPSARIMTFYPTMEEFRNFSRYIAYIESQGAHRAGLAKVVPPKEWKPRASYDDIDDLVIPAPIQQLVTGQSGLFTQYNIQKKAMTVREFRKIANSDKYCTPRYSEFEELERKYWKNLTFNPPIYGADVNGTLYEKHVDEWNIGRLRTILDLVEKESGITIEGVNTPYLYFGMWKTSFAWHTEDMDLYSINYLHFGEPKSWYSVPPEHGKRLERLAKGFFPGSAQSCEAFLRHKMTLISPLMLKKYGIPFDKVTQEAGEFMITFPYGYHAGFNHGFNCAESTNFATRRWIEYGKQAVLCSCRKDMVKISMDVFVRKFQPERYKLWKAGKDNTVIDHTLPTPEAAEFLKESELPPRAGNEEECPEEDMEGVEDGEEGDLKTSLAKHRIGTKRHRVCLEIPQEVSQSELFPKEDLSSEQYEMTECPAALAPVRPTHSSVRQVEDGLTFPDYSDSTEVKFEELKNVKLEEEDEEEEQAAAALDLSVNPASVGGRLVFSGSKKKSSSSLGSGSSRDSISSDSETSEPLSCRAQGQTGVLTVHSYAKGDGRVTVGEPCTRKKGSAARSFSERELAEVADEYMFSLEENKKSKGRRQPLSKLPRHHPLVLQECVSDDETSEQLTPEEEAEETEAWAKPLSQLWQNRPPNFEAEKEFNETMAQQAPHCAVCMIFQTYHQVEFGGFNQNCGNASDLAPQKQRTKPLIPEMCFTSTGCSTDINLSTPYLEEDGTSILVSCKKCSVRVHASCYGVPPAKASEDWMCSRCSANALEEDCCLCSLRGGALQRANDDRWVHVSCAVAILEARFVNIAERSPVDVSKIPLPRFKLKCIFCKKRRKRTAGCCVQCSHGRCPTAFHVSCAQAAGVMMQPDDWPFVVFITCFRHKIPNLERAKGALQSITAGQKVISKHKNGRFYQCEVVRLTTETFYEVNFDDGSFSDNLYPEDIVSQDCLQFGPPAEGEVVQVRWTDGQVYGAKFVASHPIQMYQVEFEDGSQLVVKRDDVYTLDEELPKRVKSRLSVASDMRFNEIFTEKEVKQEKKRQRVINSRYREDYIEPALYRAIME

Each structure is given as a SMILES string. This is a selection; strong and weak results do not stand in their true shares. Records with an inconclusive call do not appear. Activity calls are given as the source filed them. Calls follow the shape of the dose curve; as a rule, active = well fitted inhibition curve with a large enough effect; inconclusive = small, poorly fitted or top-dose-only effect; inactive = no such curve, though single readings can be large or run the other way.
% is scaled to controls: 0 for no effect and ±100 for the full control effect; potency is read from the fitted curve at half-maximal effect.

The experiment addresses Lysine-specific demethylase 4A (Homo sapiens) (UniProt O75164). As to the kind of experiment: qHTS Assay for Inhibitors of JMJD2A-Tudor Domain. Also: nearly all actives have a fitted effect of over 50% in size. Particulars: AlphaScreen JMJD2A-Tudor / H3K4me3 peptide binding; series mostly up to 114 µM; activity change, negative = inhibition: at the top concentration.
As for `CCN(CC)C(=S)SC(NC=O)C(Cl)(Cl)Cl` (stereo unspecified), the “activity change, negative = inhibition” value is inactive: -6.17%.
As for `C[As](=O)(O)c1cccc(C(=O)O)c1`, the “activity change, negative = inhibition” value was inactive: -12.3%.
The same measure, in the same setting: in the case of `O=[As](O)(c1ccc(O)cc1)c1ccccc1O` it was inactive: 2.01%.
In the case of `O=[N+]([O-])c1ccc(-c2cc([N+](=O)[O-])c(O)c([N+](=O)[O-])c2)cc1`, the Potency was active: 14.1 µM.
As to `COc1cc(C(=O)NCC2(N3CCOCC3)CCCCC2)ccc1OCC(C)C`, the “activity change, negative = inhibition” value was inactive: -15.7%.
Turning to `Cc1ccc2nc3c(c(C)c2c1)CC(C(Cl)Cl)S3` (stereo unspecified), the “activity change, negative = inhibition” value is inactive: -3.03%.
`Cc1ccc(OP(=O)(Nc2ccc([N+](=O)[O-])cn2)Oc2ccc(C)cc2)cc1`: the “activity change, negative = inhibition” value is inactive: -1.01%.
On the same count and under the same terms, the value for `COc1ccc(N/C(=N/P(=O)(N2CCOCC2)N2CCOCC2)N2CCOCC2)cc1` was inactive: 1.46%.
With `O=C(OC1CN2CCC1CC2)C12CC3CC(CC(C3)C1)C2` (stereo unspecified), the “activity change, negative = inhibition” value was inactive: 1.99%.
Same read-out and setting: the value for `Cc1cc(=O)[nH]c(N[N+](=O)[O-])n1` was inactive: 1.39%; that for `Cc1c2c(nc3ccccc13)SC(C(Cl)Cl)C2` (stereo unspecified) was inactive: 17%.
Take `COc1ccc2nc(NP(=O)(c3ccccc3)c3ccccc3)sc2c1`: the “activity change, negative = inhibition” value is inactive: -13.2%.
Regarding `COc1cc(I)ccc1[As](=O)(O)O`, the “activity change, negative = inhibition” value was inactive: -7.24%.
Same read-out and setting: the value for `O=P1(N(CCCl)CCCl)Nc2ccccc2N1` was inactive: -7.59%.
On the same count and under the same terms, in the case of `O=P1(N(CCCl)CCCl)OCCCN1CCCl` (stereo unspecified) it was inactive: -12.5%; in that of `CCCOP(=S)(Nc1nc(N)cc(=O)[nH]1)OCCC`, inactive: -0.725%; in that of `Nc1cccc2c([As](=O)(O)O)cccc12`, inactive: -11.3%.
Turning to `Cc1ccc(NCCc2c([N+](=O)[O-])cc([N+](=O)[O-])cc2[N+](=O)[O-])cc1`, the Potency is active: 15.8 µM.
As for `COc1cc(C2NCCC3(OCCO3)C2(C)C)cc(OC)c1OC` (stereo unspecified), the “activity change, negative = inhibition” value is inactive: -16.3%.
For the compound `CCOP(=O)(Nc1cccc2ccccc12)OCC`, the “activity change, negative = inhibition” value was inactive: -18.2%.
For `O=[As](O)(O)c1cccnc1`, the activity change, negative = inhibition was inactive: -14.7% [at 11.4 µM].
On the same count and under the same terms, in the case of `COc1cc(C(=O)NCC2(N3CCOCC3)CCCCC2)cc(Cl)c1OC(C)C` it was inactive: -15.8% [at 11.4 µM]; in that of `CS(=O)(=O)c1ccc(Cl)c(NC(=O)COC(=O)C(O)(c2ccccc2)c2ccccc2)c1`, inactive: -22.1%; in that of `O=C(OC1CN2CCC1CC2)c1ccc(Cl)cc1` (stereo unspecified), inactive: 0%.
For the compound `Cc1cccc(OCC(=O)OC2CN3CCC2CC3)c1` (stereo unspecified), the “activity change, negative = inhibition” value was inactive: -28.3%.
As to `O=[As](O)(c1cccc(O)c1)c1cccc(O)c1`, the “activity change, negative = inhibition” value is inactive: 0.341%.
Turning to `NC(=O)Nc1ccc([As](=O)(O)O)cc1`, the “activity change, negative = inhibition” value is inactive: -6.38%.
As to `O=[N+]([O-])c1ccc2c(c1)nnn2O`, the “activity change, negative = inhibition” value was inactive: -25%.
Regarding `CN(C)C(=O)c1cc([N+](=O)[O-])cc2c1-c1c(cc([N+](=O)[O-])cc1[N+](=O)[O-])C2=O`, the “activity change, negative = inhibition” value was inactive: -34.3%.
Turning to `CN(C(=O)Cc1ccc(Cl)c(Cl)c1)[C@H]1CC[C@@]2(CCCO2)C[C@@H]1N1CCCC1`, the “activity change, negative = inhibition” value was inactive: -8.63%.
With `N#CCCN(C(=O)COC(=O)C(O)(c1ccccc1)c1ccccc1)c1ccc(F)cc1`, the “activity change, negative = inhibition” value is inactive: -14.5%.
With `CCOP1(=S)c2c(C)nn(CCC#N)c2N=C(c2ccc(F)cc2)N1C` (stereo unspecified), the “activity change, negative = inhibition” value is inactive: -16.3%.
Same read-out and setting: in the case of `CN(C(=O)Cc1ccccc1)[C@@H]1CC[C@]2(CCCO2)C[C@H]1N1CCCC1` it was inactive: -23.7%.
With `CS(=O)(=O)c1cc([N+](=O)[O-])c2no[n+]([O-])c2c1`, the Potency is active: 5.62 µM.
`CCOP1(=S)c2c(C)nn(CCC#N)c2N=C(c2ccccc2F)N1C` (stereo unspecified): the “activity change, negative = inhibition” value was inactive: -13.3%.
Same read-out and setting: in the case of `O=P(Nc1nccs1)(Oc1ccccc1)Oc1ccccc1` it was inactive: -7.19%.
On to `O=P(Nc1nccs1)(c1ccccc1)c1nc2ccccc2s1` (stereo unspecified), for which the Potency is active: 4.47 µM.
As to `O=C(O)COc1ccc([As](=O)(O)O)cc1[N+](=O)[O-]`, the “activity change, negative = inhibition” value was inactive: -15.2%.
As to `Nc1ccccc1[As](=O)(O)c1ccccc1`, the “activity change, negative = inhibition” value is inactive: -3.34%.
In the case of `O=P1(Nc2ncccn2)COc2ccccc2OC1`, the “activity change, negative = inhibition” value was inactive: -24.4% [at 57.1 µM].
Take `O=[As](O)(c1cccs1)c1cccs1`: the “activity change, negative = inhibition” value was inactive: -7.04%.
For `Cc1ccc(OCC(=O)OC2CN3CCC2CC3)cc1` (stereo unspecified), the “activity change, negative = inhibition” value was inactive: 2.65%.
On to `NS(=O)(=O)c1cccc(NC(=O)COC(=O)C(O)(c2ccccc2)c2ccccc2)c1`, for which the “activity change, negative = inhibition” value is inactive: -12.2%.
Still for that read-out and setting: the value for `O=P1(Nc2ccc(Br)cn2)COc2ccccc2OC1` was inactive: -3.6%; that for `Nc1cccc([As](=O)(O)c2ccccc2)c1` was inactive: -14.3%; that for `Cc1nn(-c2ccccc2)c2c1P(=O)(N1CCOCC1)N(C)C(c1ccccc1)=N2` (stereo unspecified) was inactive: -16.3%.
The same measure, in the same setting: in the case of `Cc1ccc(C(=O)OC2CN3CCC2CC3)cc1` (stereo unspecified) it was inactive: -8.7%.
With `CC1CCC(C(C)C)C(OP(=O)(Nc2ccccn2)c2ccccc2)C1` (stereo unspecified), the “activity change, negative = inhibition” value is inactive: -14.3%.
The same measure, in the same setting: in the case of `O=C(/C=C/c1ccccc1)OC1CN2CCC1CC2` (stereo unspecified) it was inactive: 1.81%.
As to `CCCC1OP(=O)(Nc2ccccc2)OCC1CC` (stereo unspecified), the “activity change, negative = inhibition” value is inactive: -6.29%.
As for `CN(C)C1(CNC(=O)c2ccc(S(C)(=O)=O)cc2)CCCCC1`, the “activity change, negative = inhibition” value is inactive: -0.73%.
Consider `COc1ccccc1CNC(=O)COC(=O)C(O)(c1ccccc1)c1ccccc1`, for which the “activity change, negative = inhibition” value was inactive: -13.5%.
Consider `CC1(CBr)Cn2c(nc3ccccc3c2=O)S1` (stereo unspecified), for which the “activity change, negative = inhibition” value is inactive: -4.19%.
The same measure, in the same setting: the value for `CN(C(=O)Cc1ccc(Cl)c(Cl)c1)[C@@H]1CCCC[C@H]1N1CCCC1` was inactive: -6.47%.
As to `CC(C)/C=N\N=C(\N)N[N+](=O)[O-]`, the “activity change, negative = inhibition” value is inactive: -7.69%.
Turning to `CCOP(=O)(Nc1ccc(C)cn1)OCC`, the “activity change, negative = inhibition” value was inactive: -7.04%.
As to `CCC1=CC2Cc3nc4ccc(Cl)cc4c(N)c3C(C1)C2` (stereo unspecified), the “activity change, negative = inhibition” value was inactive: -27.1%.
For the compound `O=P1(Nc2ccccn2)COc2ccccc2OC1`, the “activity change, negative = inhibition” value is inactive: 13.4% [at 57.1 µM].
On the same count and under the same terms, the value for `CCOP(=O)(NC(=NC(C)c1ccccc1)NC(C)c1ccccc1)OCC` (stereo unspecified) was inactive: -13.6%.
Regarding `Clc1n[nH]nc1-c1nn[nH][15n]1`, the Potency is active: 2.82 µM.
`CC(C)(C)C(=O)NC(Sc1ncccn1)C(Cl)(Cl)Cl` (stereo unspecified): the “activity change, negative = inhibition” value is inactive: -3.4%.
